One sequence from patent US9629892B2, “Treatment of penetrative injury to the brain” (NoNO Inc., priority 2010, dated 2017) can be followed below.

Experiment [1] relates to PBBI rats. In words: Neuroscore after PBBI injury. The experiment is classed as in vivo, rat. The following applies: Study 2; 0.5 mg/kg vs 0.05 and 0.275 mg/kg; 3 and 7 days post PBBI.
Experiment [2] relates to PBBI rats. As to the kind of experiment: Fixed-speed rotarod task after PBBI injury. The experiment is classed as in vivo, rat. The following applies: Study 2; 0.50 mg/kg vs 0.05 and 0.275 mg/kg; 7 days post-PBBI.
The test system of experiment [3] is PBBI rats. In words: PBBI neuropathology: lesion volume in brain sections (H&E, TTC staining). The following applies: Study 1, H&E stained sections.

On to YGRKKRRQRRRKLSSIESDV [Tat-NR2B9c], for which the “neuroscore (injury-induced neurological deficits)” value in the experiment on PBBI rats [1] is listed as “most effective in reducing injury-induced neurological deficits”. Moreover, the “PBBI-induced motor abnormalities on the rotarod task” value with PBBI rats [2] was “more effective than the lower doses”. The “extent (volume) of the lesion, trend particularly in the more caudal sections” value with PBBI rats [3] (0.5 mg/kg) is on record as “reduced the extent (i.e., volume) of the lesion”; in the experiment on PBBI rats [3] (5.0 mg/kg), “reduced the extent (i.e., volume) of the lesion”.
